The chains behind the UniProt entries cited, without tags or fusion partners. Residues count along the entry.
UniProt P02768, 25-609: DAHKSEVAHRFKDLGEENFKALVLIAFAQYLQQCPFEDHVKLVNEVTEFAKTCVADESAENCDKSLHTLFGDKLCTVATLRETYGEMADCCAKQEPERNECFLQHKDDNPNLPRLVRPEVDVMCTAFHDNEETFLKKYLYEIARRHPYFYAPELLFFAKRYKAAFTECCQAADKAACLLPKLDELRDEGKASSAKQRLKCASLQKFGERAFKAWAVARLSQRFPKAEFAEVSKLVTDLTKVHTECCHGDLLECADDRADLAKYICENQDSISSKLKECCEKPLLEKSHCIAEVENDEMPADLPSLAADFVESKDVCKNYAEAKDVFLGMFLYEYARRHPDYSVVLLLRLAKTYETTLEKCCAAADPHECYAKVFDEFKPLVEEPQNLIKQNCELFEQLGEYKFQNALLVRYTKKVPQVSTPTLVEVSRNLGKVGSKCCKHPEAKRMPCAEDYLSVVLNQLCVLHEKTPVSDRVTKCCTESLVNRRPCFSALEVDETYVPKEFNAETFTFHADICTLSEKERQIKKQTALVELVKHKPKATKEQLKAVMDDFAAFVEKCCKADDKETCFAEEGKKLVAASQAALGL

In patent US20070043509A1, “Albumin binding sites for evaluating drug interactions and methods of evaluating or designing drugs based on their albumin binding properties” (priority 2003, published 2007):

Molecular target: human serum albumin (Homo sapiens, UniProt P02768)
Settings: for Albumin Binding Location: Table I, Phase I, crystal structure of HSA-drug complex, crystal code printed in brackets after drug name; for Site of contacting residues in drug-albumin complex: Table II, Phase II, site heading of residue list, residues within 5 Å of bound ligand

Albumin Binding Location | SMILES | Site of contacting residues in drug-albumin complex
IIA | CCCCNc1cc(C(=O)O)cc(S(N)(=O)=O)c1Oc1ccccc1 [Bumetanide] | Site IIA W214, R218, L219, R222, F223, L234, L238, V241, R257, L260,
I-III | CCCCN1CCCCC1C(=O)Nc1c(C)cccc1C (stereo not shown) [Bupivacaine] | Site I-III Contacting residues:
IIIA | CCCNC(=O)NS(=O)(=O)c1ccc(Cl)cc1 [Chlorpropamide] | Site IIIA L387, N391, F403, L407, R410, Y411, K414, V415, V426, L430,
IIIA | Cc1onc(-c2c(Cl)cccc2Cl)c1C(=O)N[C@@H]1C(=O)N2[C@@H]1SC(C)(C)[C@@H]2C(=O)O [Dicloxacillin] | Site IIIA L387, I388, N391, C392, F395, F403, L407, R410, Y411, K414,
IIIA | COc1ccc2nc([S@@+]([O-])Cc3ncc(C)c(OC)c3C)[nH]c2c1 [Esomeprazole] | Site IIIA L387, N391, L407, R410, Y411, K414, L430, L453, L457, R485,
IIA | C=C1C[C@@H]2[C@H](CC[C@]3(C)C(=O)CC[C@@H]23)[C@@]2(C)C=CC(=O)C=C12 [Exemestane] | Site IIA
IIA | CC(C)[C@H]1CC[C@H](C(=O)N[C@H](Cc2ccccc2)C(=O)O)CC1 [Nateglinide] | Site IIA K199, W214, R218, L219, R222, F223, L238, V241, H242, R257,
IIIA | CCc1nn(CCCN2CCN(c3cccc(Cl)c3)CC2)c(=O)n1CCOc1ccccc1 [Nefazodone] | Site IIIA
IIIA | CN(C/C=C/C#CC(C)(C)C)Cc1cccc2ccccc12 [Terbinafine] | Site IIIA L387, I388, N391, C392, F395, F403, L407, L408, Y411, V415,
IIA, IIIA, IIIB | CC(c1cc2ccccc2s1)N(O)C(N)=O (stereo not shown) [Zileuton] | –
